The numbers were not newly measured in patent US9782491B2, “Peptide conjugates for treating pain” (priority 2012, dated 2017), which cites them from elsewhere.

The conditions of this series: carrier peptide; cited from earlier work.

Consider transportan [TP], for which the half-life entry is on record as “greater than 72 hrs”.
